Measurements from ChEMBL document CHEMBL4354876, “A Selective Modulator of Peroxisome Proliferator-Activated Receptor γ with an Unprecedented Binding Mode” (J Med Chem, 2020).

Amino acid sequences for entries named in this document (tags omitted). A change or cut given only in a name is not applied to a line headed by its entry.
UniProt P37231: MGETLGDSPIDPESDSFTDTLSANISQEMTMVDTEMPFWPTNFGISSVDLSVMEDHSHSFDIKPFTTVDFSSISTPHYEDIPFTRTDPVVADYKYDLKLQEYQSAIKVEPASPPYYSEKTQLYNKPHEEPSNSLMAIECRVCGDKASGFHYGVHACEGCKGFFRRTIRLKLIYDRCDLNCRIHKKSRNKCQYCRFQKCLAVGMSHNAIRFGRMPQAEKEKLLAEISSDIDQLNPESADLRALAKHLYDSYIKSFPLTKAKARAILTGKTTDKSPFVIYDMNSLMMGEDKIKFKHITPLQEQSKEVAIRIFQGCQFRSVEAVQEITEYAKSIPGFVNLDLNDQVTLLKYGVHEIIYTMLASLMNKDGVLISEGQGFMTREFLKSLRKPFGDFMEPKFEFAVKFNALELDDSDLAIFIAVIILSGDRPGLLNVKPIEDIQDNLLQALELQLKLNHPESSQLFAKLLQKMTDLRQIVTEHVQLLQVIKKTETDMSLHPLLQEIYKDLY
UniProt Q03181: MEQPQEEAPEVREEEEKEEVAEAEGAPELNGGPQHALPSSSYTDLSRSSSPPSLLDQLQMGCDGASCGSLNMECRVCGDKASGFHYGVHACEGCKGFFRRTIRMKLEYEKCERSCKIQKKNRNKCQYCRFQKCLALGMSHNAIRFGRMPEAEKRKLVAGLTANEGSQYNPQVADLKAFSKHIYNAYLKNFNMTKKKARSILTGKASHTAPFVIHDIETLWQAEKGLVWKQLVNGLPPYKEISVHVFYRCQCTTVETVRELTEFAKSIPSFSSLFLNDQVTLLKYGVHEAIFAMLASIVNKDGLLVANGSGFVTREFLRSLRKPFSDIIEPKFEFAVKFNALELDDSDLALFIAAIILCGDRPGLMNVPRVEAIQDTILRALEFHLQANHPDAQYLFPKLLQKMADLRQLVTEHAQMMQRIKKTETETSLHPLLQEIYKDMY

Assays:
[1] = species: Homo sapiens; experiment: Selectivity ratio of EC50 for partial agonist activity at Gal4-fused PPARalpha LBD (unknown origin) expressed in HEK293T cells to EC50 for partial agonist activity at Gal4-fused PPARgamma LBD (unknown origin) expressed in HEK293T cells; format: cell-based
[2] = molecular target: PPAR delta/gamma (Homo sapiens) (UniProt P37231+Q03181); experiment: Selectivity ratio of EC50 for partial agonist activity at Gal4-fused PPARdelta LBD (unknown origin) expressed in HEK293T cells to EC50 for partial agonist activity at Gal4-fused PPARgamma LBD (unknown origin) expressed in HEK293T cells; format: cell-based

Ratio EC50 [2]: 200
SMILES: CCCCCCC(Sc1nc2ccc(NS(=O)(=O)c3ccc(Cl)cc3Cl)cc2s1)C(=O)O (configuration not stated)
Ratio EC50 [1]: 250
